Test results from patent EP3108897A1 (F. Hoffmann-La Roche AG, dated 2016).
Read-outs that look alike come from different tables or passages of the source.

Experiments:
Test in all cases: cell-based or functional assay
[1] = target: T1, human wildtype CSF-1R (full-length) (human, UniProt P07333 20-972)
[2] = target: T1, human wildtype CSF-1R (full-length); remark: listed apart in the source
[3] = target: T1, human wildtype CSF-1R (full-length); remark: listed apart in the source

IC50 CSF-1R Phosphorylation (phospho/total CSF-1R ELISA on lysates of NIH3T3-CSF-1R cells stimulated with hu CSF-1) [1] [µg/mL]	Binder	IC50 of inhibition of survival of human monocytes cultured with 150 ng/ml huCSF-1 (CellTiterGlo) [2] [µg/mL]	IC50 of inhibition of survival of human monocytes cultured with 150 ng/ml huCSF-1 (CellTiterGlo) [3] [µg/mL]
0.219	Mab 2F11 (antibody, V domains shown) VH: QVQLKESGPGLVAPSQSLSITCTVSGFSLTTYDISWIRQSPGKGLEWLGVIWTDGGTNYNSPFMSRLSIRKDNSKSQVFLKMNRLQTDDTAIYYCVRDQRLYFDVWGAGTTVTVSS VL: NIVMTQSPKSMSMSVGERVTLNCKASEDVNTYVSWYQQQPEQSPKLLIYGASNRYTGVPDRFTGGGSTTDFTLTISSVQAEDLADYFCGQSFSYPTFGTGTKLEIK	0.08	
0.752	Mab 2E10 (antibody, V domains shown) VH: QVQLKESGPGLVAPSKSLSITCTVSGSSLDSFDISWIRQSPGKGLEWLGVIWTGGGTNYNSGFMSRLRITKDNSKSQVLLKMNSLQSDDTAIYYCVRDPRLYFDVWGAGTTVTVSS VL: NIVMTQSPKSMSMSVGERVTLSCKASEDVVTYVSWYQQKPDQSPKLLIYGASNRYTGVPDRFTGSGSATDFTLTISSVQAEDLADYYCGQTFSYPTFGTGTKLEIK		
	hMab 2F11-f12 (antibody, V domains shown) VH: QVQLVQSGAEVKKPGSSVKVSCKASGFSLTTYDISWVRQAPGQGLEWMGVIWTDGGTNYNSPFMSRVTITKDESTSTAYMELSSLRSEDTAVYYCVRDQRLYFDVWGQGTTVTVSS VL: DIQMTQSPSSLSASVGDRVTITCRASEDVNTYVSWYQQKPGKAPKLLIYGASSLQSGVPSRFSGSGSGTDFTLTISSLQPEDFATYYCGQSFSYPTFGQGTKLEIK		0.09
